The values below are quoted from earlier work in article PMC7566471, “A new perspective on the interaction between the Vg/VGLL1-3 proteins and the TEAD transcription factors” (Scientific Reports, 2020).

Protein sequences, listed by entry. Tags and fused reporters are not part of them. Residues count along the entry.
UniProt Q15561, whole entry: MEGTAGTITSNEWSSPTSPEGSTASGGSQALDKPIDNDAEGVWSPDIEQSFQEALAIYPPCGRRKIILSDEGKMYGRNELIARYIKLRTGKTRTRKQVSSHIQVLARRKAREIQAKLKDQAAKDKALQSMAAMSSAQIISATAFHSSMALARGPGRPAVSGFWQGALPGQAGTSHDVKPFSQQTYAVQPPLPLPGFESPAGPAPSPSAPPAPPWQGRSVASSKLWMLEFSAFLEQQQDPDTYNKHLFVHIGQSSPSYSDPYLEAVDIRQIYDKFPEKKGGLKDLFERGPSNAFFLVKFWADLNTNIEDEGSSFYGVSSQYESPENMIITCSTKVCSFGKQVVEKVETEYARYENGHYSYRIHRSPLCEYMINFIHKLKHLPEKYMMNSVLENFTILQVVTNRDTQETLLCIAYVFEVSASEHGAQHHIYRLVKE
UniProt P46937, 50-99: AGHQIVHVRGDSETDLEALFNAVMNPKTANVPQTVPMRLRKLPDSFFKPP

This data set concerns the target TEAD4 (Homo sapiens) (UniProt Q15561). As to conditions: cited from earlier work.

The Kd is the constant that tells how readily two partners part at equilibrium. As for YAP 50-99 (from UniProt P46937), the Kd is 11 nM.
